# AlphaSeq binding of Ab-91 heavy chain variants to a spike HR2 peptide

Binding partner: SARS-CoV-2 spike HR2 peptide, sequence PDVDLGDISGINAS.

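Phage display of a naive human antibody library on the peptide gave the parent. Library AAYL51 holds single substitutions and randomly drawn double and triple substitutions in the CDRs. In AlphaSeq, yeast of one mating type display the scFv and yeast of the other type display the target. Binding brings cells together so that they mate, and sequencing counts the barcode pairs among the diploids. Read counts were normalised to the haploid input and turned into Kd by a linear fit to BCL2-family pairs of known affinity, for each replicate. The assay was run in three technical replicates.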

Each scFv is VL, a 15-residue (Gly4Ser)3 linker, VH, as in the parent Ab-91, and differs from it in the CDRs of the heavy chain only.
VL: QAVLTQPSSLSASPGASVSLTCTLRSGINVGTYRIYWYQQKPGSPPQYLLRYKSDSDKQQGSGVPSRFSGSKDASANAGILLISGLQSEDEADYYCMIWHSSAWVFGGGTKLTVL
VH: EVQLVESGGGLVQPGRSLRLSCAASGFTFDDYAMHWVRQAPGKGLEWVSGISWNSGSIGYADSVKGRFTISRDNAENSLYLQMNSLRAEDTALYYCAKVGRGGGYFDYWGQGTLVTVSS

Each variant is given by its three heavy chain CDRs, as the data file delimits them; those of the parent are GFTFDDYAMH, GISWNSGSIGYADSVK, VGRGGGYFDY.
Values are log10 of the apparent Kd in nM; lower means stronger binding.
"ND" marks a missing value. The strain was present, yet no cells mated with the target were sequenced in that replicate, which points to weak or no binding.
For reference, the parent read 1.86 as the reference entry and 0.88 as a member of this library.

CDR-H1	CDR-H2	CDR-H3	log10 Kd (nM) by replicate	signal with controls
GFTFDIYAMH	GISWNSGSIGYADSVC	VGRGGGYFDY	ND / ND / ND	0 of 9
GFTFDDYAQI	GISWNSGCIGYADSVK	VGRGGGYFDY	4.72 / 5.39 / ND	4 of 9 (4.65)
GFTFDDYAMH	GISWESGSIGQADSVK	VGRGGRYFDY	4.74 / ND / ND	5 of 9 (4.58)
GFTFDDYAMP	GISWNSGSIGYASSVK	VGRGGSYFDY	4.82 / ND / ND	2 of 9 (4.13)
GFTFDDYRMH	GISWNSRSIGYAHSVK	VGRGGGYFDY	6.17 / ND / ND	4 of 9 (4.27)
GFTSDDYAMH	GISWRSGSIGYADSVK	VGLGGGYFDY	3.33 / ND / ND	0 of 9
GFTFDDYAMH	GISWNSGSIGYADSDK	VGRGGGYDDY	ND / ND / ND	2 of 9 (4.31)
GFTFDDYAMH	LISWASGSIGYAWSVK	VGRGGGYFDY	5.48 / ND / ND	1 of 9 (3.96)
GFTFDDYAMH	GISWNSGSIGKADSVK	VGRGGGATDY	ND / ND / ND	4 of 9 (4.28)
EFTFDDYAMH	GISWNMGSIGYAGSVK	VGRGGGYFDY	ND / ND / 4.71	3 of 9 (4.66)
GFTFDDYAMH	GISGNSGSIGYADSVL	VGRGGGWFDY	ND / ND / ND	0 of 9
GFTFDDYAMH	GISWNSGSIWYWDSVK	VGRGGGYRDY	4.34 / 6.32 / ND	5 of 9 (4.71)
GFTFDDYAMH	GISWNSGTIGYADSVK	VFRGGGYFDY	3.69 / ND / ND	1 of 9 (4.40)
GFTFDDYAMH	GISWNCGSIEYADSVK	HGRGGGYFDY	3.19 / ND / ND	2 of 9 (4.21)
GFTFDDYAMH	FISWNSGSRGYADSVQ	VGRGGGYFDY	ND / ND / ND	2 of 9 (4.15)
GFTFDDYAMH	GIDWNSGSIGIAPSVK	VGRGGGYFDY	ND / 2.64 / ND	2 of 9 (4.63)
GFTFDAYAMH	GNSWNSGSIGYADSVK	VGCGGGYFDY	ND / ND / ND	0 of 9
GFTFDDYAMH	GIDWNSVYIGYADSVK	VGRGGGYFDY	ND / ND / ND	1 of 9 (2.82)
GFTFDDYAMH	GISWNSGSIGYADSVK	VGEGGLEFDY	3.46 / ND / ND	1 of 9 (3.46)
GFTFDDYAMH	GISWNSGSIGYADSVK	VDRVGKYFDY	2.27 / 2.49 / 2.33	6 of 9 (4.91)
GFTFDDYAMH	GISWNSGSIRYSDQVK	VGRGGGYFDY	4.31 / ND / ND	4 of 9 (4.13)
SGTFDDYMMH	GISWNSGSIGYADSVK	VGRGGGYFDY	ND / ND / ND	0 of 9
GFTNDDYAMH	IISWNSGSIGYADGVK	VGRGGGYFDY	ND / ND / 4.52	2 of 9 (4.36)
GFRFDDYAMH	GKSWNSGSIGYADSVK	VGRGGGYFDY	ND / ND / ND	0 of 9
KFTFDDYAMH	GISWNSGSIGYADQVK	VGRGGGYFDY	ND / 2.69 / ND	0 of 9
GFTFDDYPMH	GISWNSGSIGYADSVD	VGRGGGYFFY	ND / ND / ND	2 of 9 (3.94)
GFTFDDYAMH	GISWNSFSIIYADSVK	MGRGGGYFDY	ND / ND / ND	1 of 9 (3.01)
GNTFDDYAMH	GISWNSGGIGYADSVK	VGRGGKYFDY	ND / ND / ND	2 of 9 (4.56)
GVTFDDYHMH	GISWNSGSIGCADSVK	VGRGGGYFDY	ND / ND / ND	1 of 9 (3.43)
GFTFDDYGMH	GIPWNSGSIGYNDSVK	VGRGGGYFDY	ND / ND / ND	0 of 9
IFTFDDYAMH	GISWNYGSIGYADSVK	VGRGGGTFDY	ND / ND / ND	1 of 9 (5.32)
GFTFDDYSMF	GISWNSGSIGYADSTK	VGRGGGYFDY	ND / ND / ND	0 of 9
GFTFMDYAMH	GISWNSGSIGYADSQK	VGDGGGYFDY	4.56 / ND / ND	4 of 9 (4.22)
GFTFDDYAMH	GISTNSGHIGYADSVK	VTRGGGYFDY	4.55 / ND / ND	1 of 9 (5.43)
IFTFDDYAMH	GISWLSGSIGYADSVK	VGRGGGYYDY	ND / ND / ND	1 of 9 (4.30)
GFTFDDYAMH	GISWNSGSIGYADFVK	VGRGGGEFDT	3.87 / 4.62 / 4.75	2 of 9 (3.89)
GFTFDDYAMH	GISWWSGSIGYADSVW	VGVGGGYFDY	ND / ND / ND	4 of 9 (5.15)
GFTFFDYAMH	GISWNEGSIGYADSVK	VIRGGGYFDY	3.33 / 3.19 / ND	1 of 9 (3.56)
GFTFDDYAMH	GIPWNSGKIAYADSVK	VGRGGGYFDY	4.90 / ND / 5.31	7 of 9 (5.54)
GFTFRDWAMH	GISWNSGSIGYADSVK	VGRGDGYFDY	4.44 / ND / ND	0 of 9
GFTFDDYAMH	GISWNSGSIGYADSVN	VGRGGGYFFA	ND / ND / ND	1 of 9 (5.65)
GFTFDDYAMH	GIAWNSGSIGYADSVK	VGRGGGYFDY	0.73 / 0.55 / 0.01	7 of 9 (4.74)
GFTFDDYAMH	GISWNSGSICDADSVK	VGRGGGYFDY	ND / 5.37 / ND	2 of 9 (3.74)

A selection of 5 entries from above:

CDR-H1,CDR-H2,CDR-H3,log10 Kd (nM) by replicate,signal with controls
GFTFDDYAMH,GISWNSGSIGYADSVN,VGRGGGYFFA,ND / ND / ND,1 of 9 (5.65)
GFTFDDYAMH,GIDWNSGSIGIAPSVK,VGRGGGYFDY,ND / 2.64 / ND,2 of 9 (4.63)
GFTFDDYAMH,GISGNSGSIGYADSVL,VGRGGGWFDY,ND / ND / ND,0 of 9
GFTFDDYAMH,GIPWNSGKIAYADSVK,VGRGGGYFDY,4.90 / ND / 5.31,7 of 9 (5.54)
GFTFDDYAMP,GISWNSGSIGYASSVK,VGRGGSYFDY,4.82 / ND / ND,2 of 9 (4.13)

As a blank, each scFv also met three strains without target: over library AAYL51, 21% of these pairings were detected, typically at 4.54 and seldom below 3.26. For each scFv, signals with the empty controls are counted beside the result, with their mean in brackets.

Reference: Engelhart et al. 2022, doi:10.1038/s41597-022-01779-4. File: FLAb, binding data.